# Test results: patent US6919375B1, “Sulfonated amino acid derivatives and metalloproteinase inhibitors containing the same” (Shionogi & Co., Ltd., priority 1996, dated 2005)
# The chains behind the UniProt entries cited, without tags or fusion partners. Residues count along the entry.
# UniProt P14780, 107-707 limits assumed: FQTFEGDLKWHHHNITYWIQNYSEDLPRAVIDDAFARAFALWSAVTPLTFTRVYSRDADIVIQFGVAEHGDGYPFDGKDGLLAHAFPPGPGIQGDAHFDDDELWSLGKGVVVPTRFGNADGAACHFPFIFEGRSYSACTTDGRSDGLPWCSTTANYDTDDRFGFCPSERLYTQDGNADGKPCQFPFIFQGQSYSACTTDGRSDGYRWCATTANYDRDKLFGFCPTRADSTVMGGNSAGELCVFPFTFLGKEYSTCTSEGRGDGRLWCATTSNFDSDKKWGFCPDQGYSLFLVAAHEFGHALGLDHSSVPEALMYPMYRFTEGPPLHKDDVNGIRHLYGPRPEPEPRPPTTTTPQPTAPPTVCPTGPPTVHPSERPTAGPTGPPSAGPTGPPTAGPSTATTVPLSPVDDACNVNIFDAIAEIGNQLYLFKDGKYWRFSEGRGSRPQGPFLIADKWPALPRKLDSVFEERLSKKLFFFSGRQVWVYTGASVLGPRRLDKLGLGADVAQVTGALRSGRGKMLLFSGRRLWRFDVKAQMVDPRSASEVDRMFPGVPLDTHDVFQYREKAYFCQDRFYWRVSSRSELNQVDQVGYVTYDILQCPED
# Biological target: Type IV collagenase (MMP-9) (Homo sapiens, UniProt P14780)
# Assay: Type IV collagenase (MMP-9) inhibition assay, fluorescent substrate kit
# Type: biochemical
# Details: activated MMP-9 from HT 1080 cells; type IV collagenase activity kit, fluorescent intensity
structure (smiles),measurement,value
CC(C)[C@@H](NS(=O)(=O)c1ccc(C#Cc2ccc(O)cc2)cc1)C(=O)O,IC50,2980 nM
